Laboratory results reported in ChEMBL document CHEMBL1132182, “2,6-Difluorophenol as a bioisostere of a carboxylic acid: bioisosteric analogues of gamma-aminobutyric acid” (J Med Chem, 1999).

Chains of the proteins cited; added tags and fusions are not shown. Lines headed by an entry give the natural chain unless they say otherwise; changes in a name come on top.
UniProt P80147: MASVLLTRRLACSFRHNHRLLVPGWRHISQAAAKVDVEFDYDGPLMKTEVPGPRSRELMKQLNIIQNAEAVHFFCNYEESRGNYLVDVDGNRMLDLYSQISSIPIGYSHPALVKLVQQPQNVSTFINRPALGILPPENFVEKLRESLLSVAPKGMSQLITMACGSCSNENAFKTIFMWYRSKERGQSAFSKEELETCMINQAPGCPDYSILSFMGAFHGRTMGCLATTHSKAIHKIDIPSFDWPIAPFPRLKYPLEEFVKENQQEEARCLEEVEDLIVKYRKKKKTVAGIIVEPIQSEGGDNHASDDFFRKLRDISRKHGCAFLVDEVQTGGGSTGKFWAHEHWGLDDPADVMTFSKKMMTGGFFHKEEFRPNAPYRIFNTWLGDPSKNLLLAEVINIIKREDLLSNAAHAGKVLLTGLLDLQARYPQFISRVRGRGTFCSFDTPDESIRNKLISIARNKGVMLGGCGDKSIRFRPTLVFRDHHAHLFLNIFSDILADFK

Columns and labels:
[1] = molecular target: 4-aminobutyrate aminotransferase, mitochondrial (Sus scrofa) (UniProt P80147); assay: Anticonvulsant activity against GABA aminotransferase from pig brain, by measuring the conversion of [14C]- alpha-ketoglutarate to [14C]- glutamate using radio chemical procedure.; type: tissue-based
[2] = molecular target: 4-aminobutyrate aminotransferase, mitochondrial (Sus scrofa) (UniProt P80147); assay: Anticonvulsant activity against Gamma-amino-N-butyrate transaminase from pig brain, by measuring the conversion of [14C]- alpha-ketoglutarate to [14C]- glutamate using radio chemical procedure.

Row | SMILES | Conversion [1] | Conversion [2]
1 | NCc1cc(F)c(O)c(F)c1 | 0.5% | 
2 | NCc1ccc(F)c(O)c1F |  | 0.07%
